What is called Ki is the dissociation constant of the complex between target and ligand, obtained from inhibition or displacement. Low readings indicate tighter binding, high ones weaker binding.

Molecules are shown by their SMILES.

Ki data for 1 compound are collected here from ChEMBL document CHEMBL1132110, “Design and fast synthesis of C-terminal duplicated potent C(2)-symmetric P1/P1'-modified HIV-1 protease inhibitors” (J Med Chem, 1999).

The target in this experiment is Human immunodeficiency virus type 1 protease (Human immunodeficiency virus 1, UniProt Q72874). Put plainly: Inhibitory activity against HIV-1 protease expressed in Escherichia coli. In a few lines: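 HIV-1 protease cloned and heterologously expressed in E. coli, then purified; Ki determined by fluorometric assay, standard error 20%.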

`CNC(=O)[C@@H](NC(=O)[C@H](OCc1ccc(-c2ccsc2)cc1)[C@H](O)[C@@H](O)[C@@H](OCc1ccc(-c2ccsc2)cc1)C(=O)N[C@H](C(=O)NC)C(C)C)C(C)C` had a Ki of 1.2 nM. In other words, the single-digit nanomolar range.
